Data on 1 substance can be found in patent US20240208963A1, “CRYSTALLINE MELANOCORTIN SUBTYPE-2 RECEPTOR (MC2R) ANTAGONIST” (Crinetics Pharmaceuticals, Inc., priority 2022, published 2024).

The data set can be described thus: Solubility in simulated fluids and water. As to conditions: 37° C.

By Solubility is commonly meant the dissolved amount per volume that the medium holds. Higher therefore signals a readily soluble substance.

Regarding “N-[(3S)-1-azabicyclo[2.2.2]octan-3-yl]-6-(2-ethoxyphenyl)-3-[(2R)-2-ethyl-4-[1-(trifluoromethyl)-cyclobutanecarbonyl]piperazin-1-yl]pyridine-2-carboxamide mandelate [mandelate Pattern E]”, the Solubility was greater than 1690 µg/mL (FaSSGF, 30 min); greater than 1740 µg/mL (FaSSGF, 24 h); 1190 µg/mL (FaSSIF, 30 min); 1380 µg/mL (FaSSIF, 24 h); greater than 2200 µg/mL (FeSSIF, 30 min); greater than 2130 µg/mL (FeSSIF, 24 h). Besides, the Solubility was 2520 µg/mL (water, 30 min) and greater than 2170 µg/mL (water, 24 h).
